Data reported in ChEMBL document CHEMBL5365417, “The development of diphenyleneiodonium analogs as GPR3 agonists” (Bioorg Med Chem Lett, 2023).
Calls of active or inactive are those of the source.

Chains of the proteins cited; added tags and fusions are not shown.
UniProt P46095, whole entry R220Y: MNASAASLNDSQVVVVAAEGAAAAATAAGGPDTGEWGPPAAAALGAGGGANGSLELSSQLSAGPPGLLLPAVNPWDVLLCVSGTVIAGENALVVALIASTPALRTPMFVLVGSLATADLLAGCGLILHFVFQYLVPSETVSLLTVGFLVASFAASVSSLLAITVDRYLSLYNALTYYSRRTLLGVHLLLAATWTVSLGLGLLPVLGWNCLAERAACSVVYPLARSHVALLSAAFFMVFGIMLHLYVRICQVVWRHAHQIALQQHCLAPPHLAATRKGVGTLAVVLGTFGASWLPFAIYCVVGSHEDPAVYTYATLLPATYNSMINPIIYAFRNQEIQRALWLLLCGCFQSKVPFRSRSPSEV

Columns and labels:
Format in all cases: functional, cell-based
[1] = target: G-protein coupled receptor 6 (Homo sapiens) (UniProt P46095); assay: Agonist activity at human GPR6 expressed in HEK293 cells assessed as increase in cAMP accumulation at 10 uM incubated for 30 mins by HTRF assay
[2] = target: T1, G-protein coupled receptor 12 (Homo sapiens) (UniProt P47775); assay: Agonist activity at human GPR12 expressed in HEK293 cells assessed as increase in cAMP accumulation at 10 uM incubated for 30 mins by HTRF assay
T1 sequence (whole entry): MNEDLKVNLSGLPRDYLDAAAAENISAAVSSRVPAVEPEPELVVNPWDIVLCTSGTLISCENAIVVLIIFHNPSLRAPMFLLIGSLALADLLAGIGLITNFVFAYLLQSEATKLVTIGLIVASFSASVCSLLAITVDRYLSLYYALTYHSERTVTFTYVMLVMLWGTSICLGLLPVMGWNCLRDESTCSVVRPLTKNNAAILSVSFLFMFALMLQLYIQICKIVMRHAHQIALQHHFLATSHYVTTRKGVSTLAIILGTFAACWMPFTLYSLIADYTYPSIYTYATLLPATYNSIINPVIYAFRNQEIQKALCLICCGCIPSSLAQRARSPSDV

[3] = tested on: G-protein coupled receptor 6 (Homo sapiens), P46095 [R220Y]; assay: Agonist activity at human GPR6 R220Y mutant in ECL2 expressed in HEK293 cells assessed as increase in cAMP accumulation incubated for 30 mins by HTRF assay

Measured: Activity

FC(F)(F)Oc1ccc2c(c1)[I+]c1ccccc1-2
inactive: all assays above
